Legend:
Muscarinic M1 = Muscarinic M1 (Rattus norvegicus, UniProt P08482); assay: Competitive radioligand binding assay, muscarinic M1
[1] = biological target: Serotonin 5-HT2C (Human recombinant) (Homo sapiens, UniProt P28335); assay: Competitive radioligand binding assay, serotonin 5-HT2C
[2] = biological target: Serotonin 5-HT2B (Human recombinant) (Homo sapiens, UniProt P41595); assay: Competitive radioligand binding assay, serotonin 5-HT2B

Protein sequences, listed by entry. Tags and fused reporters are not part of them. Lines headed by an entry give the natural chain unless they say otherwise; changes in a name come on top. Residues count along the entry.
UniProt P08482: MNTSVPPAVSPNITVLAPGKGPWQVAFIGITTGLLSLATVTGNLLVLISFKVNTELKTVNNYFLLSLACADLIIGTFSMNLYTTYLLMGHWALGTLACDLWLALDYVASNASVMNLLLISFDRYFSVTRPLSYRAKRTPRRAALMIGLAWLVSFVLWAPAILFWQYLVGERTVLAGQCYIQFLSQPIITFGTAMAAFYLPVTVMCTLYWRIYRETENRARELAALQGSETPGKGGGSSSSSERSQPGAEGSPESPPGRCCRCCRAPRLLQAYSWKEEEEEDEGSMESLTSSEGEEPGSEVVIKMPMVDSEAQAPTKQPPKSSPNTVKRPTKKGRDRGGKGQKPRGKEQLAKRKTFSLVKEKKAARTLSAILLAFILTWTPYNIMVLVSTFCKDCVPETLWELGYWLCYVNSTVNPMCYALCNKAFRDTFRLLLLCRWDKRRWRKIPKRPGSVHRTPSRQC
UniProt P28335, 33-458: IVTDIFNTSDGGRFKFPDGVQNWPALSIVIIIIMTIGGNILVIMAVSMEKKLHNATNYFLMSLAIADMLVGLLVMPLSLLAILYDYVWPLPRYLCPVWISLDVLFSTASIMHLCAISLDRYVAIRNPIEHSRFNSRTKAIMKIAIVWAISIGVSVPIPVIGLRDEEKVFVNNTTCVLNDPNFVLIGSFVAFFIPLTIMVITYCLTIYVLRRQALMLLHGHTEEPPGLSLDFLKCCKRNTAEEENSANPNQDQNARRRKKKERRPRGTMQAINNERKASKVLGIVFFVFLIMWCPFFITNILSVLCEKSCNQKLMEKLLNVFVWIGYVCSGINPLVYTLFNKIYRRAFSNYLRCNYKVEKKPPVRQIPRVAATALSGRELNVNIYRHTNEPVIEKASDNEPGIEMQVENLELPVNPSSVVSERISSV
UniProt P41595, whole entry: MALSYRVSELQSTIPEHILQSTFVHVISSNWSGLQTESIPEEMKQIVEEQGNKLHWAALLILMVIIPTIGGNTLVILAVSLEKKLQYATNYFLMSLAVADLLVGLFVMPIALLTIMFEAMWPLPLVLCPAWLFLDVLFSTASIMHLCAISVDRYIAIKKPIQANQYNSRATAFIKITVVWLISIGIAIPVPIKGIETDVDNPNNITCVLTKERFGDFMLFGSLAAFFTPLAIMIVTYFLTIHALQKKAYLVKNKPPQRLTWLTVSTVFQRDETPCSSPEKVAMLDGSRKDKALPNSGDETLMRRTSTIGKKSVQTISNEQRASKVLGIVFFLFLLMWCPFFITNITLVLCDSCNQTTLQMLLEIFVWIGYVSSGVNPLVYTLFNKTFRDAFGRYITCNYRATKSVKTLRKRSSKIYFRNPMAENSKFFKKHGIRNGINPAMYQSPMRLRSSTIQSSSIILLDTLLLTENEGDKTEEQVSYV

SMILES	IC50 (Muscarinic M1)	Ki (Muscarinic M1)	inhibition of receptor binding (tracer) (Muscarinic M1; test article 1×10^−6 and 1×10^−5 mol/L, rat cerebral cortex)	IC50 [1]	Ki [1]	IC50 [2]	Ki [2]
CCNC(C)Cc1cccc(C(F)(F)F)c1 (racemic) [fenfluramine, (RS)—N-ethyl-1-[3-(trifluoromethyl)phenyl]propan-2-amine]	13 µM	11.3 µM	significantly inhibit				
CCN[C@@H](C)Cc1cccc(C(F)(F)F)c1 [Dexfenfluramine]	9.57 µM	8.3 µM		3.99 µM	2.91 µM	7.55 µM	4.63 µM

Reference: patent publication US20220370381A1 (published 2022)
